Experimental data: BindingDB's records for patent US20240034729 (Wuhan Ll Science and Technology Development, 2024)

Biological target: T1, P2X purinoceptor 3 (Homo sapiens, UniProt P56373)
T1 sequence (P56373 whole entry): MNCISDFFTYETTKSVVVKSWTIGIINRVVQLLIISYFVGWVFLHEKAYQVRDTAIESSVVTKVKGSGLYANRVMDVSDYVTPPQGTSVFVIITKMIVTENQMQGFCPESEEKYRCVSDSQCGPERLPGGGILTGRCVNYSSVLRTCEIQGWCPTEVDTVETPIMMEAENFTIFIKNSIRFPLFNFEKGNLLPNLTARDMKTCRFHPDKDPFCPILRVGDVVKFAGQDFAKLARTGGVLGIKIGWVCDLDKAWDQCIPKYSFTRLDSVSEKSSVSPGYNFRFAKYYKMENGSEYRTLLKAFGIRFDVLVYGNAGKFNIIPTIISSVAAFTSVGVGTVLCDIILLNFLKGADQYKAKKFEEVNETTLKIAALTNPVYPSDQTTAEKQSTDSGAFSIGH
Assay: Evaluation of In Vitro Biological Activity
Experimental: Each well was added with 10 μL of test compound (which was dissolved in DMSO at a concentration of 10 mM and serially diluted with buffer) or vehicle, and then was left to equilibrate for 30 min at room temperature.

SMILES: COC(=O)N1CCO[C@@H](Cc2c(-c3c(F)cc(-n4cccn4)cc3F)nc3cc(C)ccn23)C1 [US20240034729, Compound 50]
- IC50: < 10 nM
